Reference: paper doi:10.1101/471615v1 (biorxiv, 2018)

Biological target: T1, GAK (InCELL Pulse) (Homo sapiens, UniProt O14976)
T1 sequence (O14976 2-1311): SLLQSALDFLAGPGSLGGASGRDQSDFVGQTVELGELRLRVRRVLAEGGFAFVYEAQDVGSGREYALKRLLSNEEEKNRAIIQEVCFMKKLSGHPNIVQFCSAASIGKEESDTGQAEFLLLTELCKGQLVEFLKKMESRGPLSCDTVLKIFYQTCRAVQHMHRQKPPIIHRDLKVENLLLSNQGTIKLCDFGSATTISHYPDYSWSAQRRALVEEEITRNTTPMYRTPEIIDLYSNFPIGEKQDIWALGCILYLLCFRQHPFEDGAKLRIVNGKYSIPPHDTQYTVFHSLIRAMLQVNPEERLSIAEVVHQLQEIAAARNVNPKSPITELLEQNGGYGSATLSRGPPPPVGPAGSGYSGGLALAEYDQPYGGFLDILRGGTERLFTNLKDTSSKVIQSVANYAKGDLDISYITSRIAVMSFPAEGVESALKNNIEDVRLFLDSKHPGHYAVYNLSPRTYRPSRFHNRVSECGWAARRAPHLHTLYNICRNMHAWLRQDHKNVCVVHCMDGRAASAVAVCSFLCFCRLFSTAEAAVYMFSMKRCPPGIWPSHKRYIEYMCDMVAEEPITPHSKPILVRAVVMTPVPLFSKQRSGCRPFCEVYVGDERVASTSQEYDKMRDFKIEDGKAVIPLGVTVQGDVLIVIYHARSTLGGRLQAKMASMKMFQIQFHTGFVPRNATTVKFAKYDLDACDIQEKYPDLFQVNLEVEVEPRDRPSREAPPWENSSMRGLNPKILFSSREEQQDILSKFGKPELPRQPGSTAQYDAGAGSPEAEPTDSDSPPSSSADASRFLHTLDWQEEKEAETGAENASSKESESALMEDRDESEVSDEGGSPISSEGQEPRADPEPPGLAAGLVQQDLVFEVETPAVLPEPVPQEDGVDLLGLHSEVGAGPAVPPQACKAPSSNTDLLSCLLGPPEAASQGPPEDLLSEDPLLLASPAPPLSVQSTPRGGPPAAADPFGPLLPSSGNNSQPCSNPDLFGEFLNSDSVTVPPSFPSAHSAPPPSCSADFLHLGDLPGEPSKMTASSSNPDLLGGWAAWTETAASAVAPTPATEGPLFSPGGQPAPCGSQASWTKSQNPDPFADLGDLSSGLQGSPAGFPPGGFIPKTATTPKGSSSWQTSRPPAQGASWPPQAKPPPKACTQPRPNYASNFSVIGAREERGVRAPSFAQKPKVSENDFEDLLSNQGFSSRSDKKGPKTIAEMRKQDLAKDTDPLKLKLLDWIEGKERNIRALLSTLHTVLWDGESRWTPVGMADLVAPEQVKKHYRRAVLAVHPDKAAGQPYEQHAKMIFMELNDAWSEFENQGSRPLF
Test: InCELL Pulse cellular target engagement
Assay type: cell-based
Conditions: in cells

COc1cc(Nc2ccnc3ccc(Br)cc23)cc(OC)c1OC [compound 5, 6-bromo compound (5)]
IC50: 200 nM
